Data on one compound can be found in patent US4225610A, “Immunoactivators derived from amino thiazoles” (Pierre Fabre, S.A., priority 1977, dated 1980).

Broadly, the LD50 is the dose expected to kill half of the subjects tested.

A short description of the data set: in vivo. To be noted: mouse, po. An excerpt: The acute toxicity after a single administration of the products per os was studied in mice.
The compounds were placed in suspension in a mixture of Tween 80™ and distilled water. […] Exper.

`c1ccc([C@H]2CN3CCSC3=N2)cc1` [Levamisole, L-tetramisole, reference compound] displayed an LD50 at 168 h of 185 mg/kg.
